Test system: Bacillus cereus spores
Assay type: cell-based

## CC(=O)O [glacial acetic acid, acetic acid]
  DPA SERS signal: no DPA SERS signal was observed

— patent US7713914B2 (priority 2005, dated 2010)
